Measurements taken from patent US12599590B2, “Veterinary formulations comprising rapamycin and methods of using the same for treating animal disease” (TriviumVet DAC, priority 2019, dated 2026).

Experiment: Feline repeat dose toxicokinetic study of oral enteric-coated formulations
Type: in vivo
Settings: whole blood, cats, oral enteric-coated formulation, Mean
Experimental: Laboratory cats were given oral enteric-coated formulations of 0.15 mg/kg, 0.45 mg/kg, or 0.75 mg/kg rapamycin three times a week for four weeks. This represents a first-in-species repeat dose test toxicokinetic study in cats. Pharmacokinetic sampling was performed after the first and last doses. FIGS. 8 and 9 show the whole blood concentration of rapamycin for 48 hours following a single dose (FIG. 8) or for 72 hours following repeated doses (FIG. 9).

## CO[C@H]1C[C@@H]2CC[C@@H](C)[C@@](O)(O2)C(=O)C(=O)N2CCCC[C@H]2C(=O)O[C@H]([C@H](C)C[C@@H]2CC[C@@H](O)[C@H](OC)C2)CC(=O)[C@H](C)/C=C(\C)[C@@H](O)[C@@H](OC)C(=O)[C@H](C)C[C@H](C)/C=C/C=C/C=C/1C [rapamycin]
0.15 mg/kg, 0.15 mg/kg three times a week, Day 26, whole blood
  Tmax: 2.5 h
0.45 mg/kg, 0.45 mg/kg, Day 0, whole blood
  Tmax: 2.5 h
